{"source": "paper PMC6925260", "about": "(Nature Communications, 2019)", "origin": "cited, not measured here", "conditions": "pH 7.2; cited from earlier work", "data": [{"smiles": "CN(CCOc1ccc(CC2SC(=O)NC2=O)cc1)c1ccccn1", "note": "(stereo not shown) [Rosiglitazone]", "values": [{"measurement": "R/S interconversion half-life", "value": 3, "unit": "h"}]}]}
